Structures are written as SMILES.

This experiment has as its target T1, MMP-1 (Homo sapiens, UniProt P03956).
T1 sequence (P03956 100-469): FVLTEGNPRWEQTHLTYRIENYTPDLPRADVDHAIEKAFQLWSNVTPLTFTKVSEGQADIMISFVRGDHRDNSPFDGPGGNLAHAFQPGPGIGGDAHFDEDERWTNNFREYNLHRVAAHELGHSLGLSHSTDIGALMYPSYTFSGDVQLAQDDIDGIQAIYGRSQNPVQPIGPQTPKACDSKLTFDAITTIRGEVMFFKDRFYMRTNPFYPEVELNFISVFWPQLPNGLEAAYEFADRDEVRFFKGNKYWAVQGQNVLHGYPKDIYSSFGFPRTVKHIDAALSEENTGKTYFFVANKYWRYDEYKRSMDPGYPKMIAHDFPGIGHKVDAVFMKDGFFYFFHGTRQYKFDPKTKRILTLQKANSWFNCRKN
The experiment can be described thus: biochemical. The following applies: MMP-1 IC50.
In turn, `CCc1cccc2c(N(Cc3ccccc3)S(=O)(=O)c3ccc(OC)cc3)c(C(=O)NO)cnc12` [Example 19, 4-[Benzyl-(4-methoxybenzenesulfonyl)-amino]-8-ethyl-quinoline-3-carboxylic acid hydroxyamide] returned an IC50 of 194 nM.

As for `COc1ccc(S(=O)(=O)N(Cc2ccccc2)c2c(C(=O)NO)cnc3ccc(C(F)(F)F)cc23)cc1` [Example 15, 4-[Benzyl-(4-methoxy-benzenesulfonyl)-amino]-6-trifluoromethyl-quinoline-3-carboxylic acid hydroxyamide], the IC50 came to 139 nM.

In the case of `COc1ccc(S(=O)(=O)N(Cc2ccccc2)c2c(C(=O)NO)cnc3cc(Br)ccc23)cc1` [Example 14, 4-[Benzyl-(4-methoxy-benzenesulfonyl)-amino]-7-bromo-quinoline-3-carboxylic acid hydroxyamide], inhibition was half-maximal at 108 nM (IC50).

The compound `COc1ccc(S(=O)(=O)N(Cc2ccccc2)c2c(C(=O)NO)cnc3c(C)cccc23)cc1` [Example 18, 4-[Benzyl-(4-methoxybenzenesulfonyl)-amino]-8-methyl-quinoline-3-carboxylic acid hydroxyamide] returned an IC50 of 152 nM. The IC50 values of the last two compounds are within 1.5-fold of each other.

In the case of `COc1ccc(S(=O)(=O)N(Cc2cccnc2)c2c(C(=O)NO)cnc3cc(C(F)(F)F)ccc23)cc1` [Example 16, 4-[(4-Methoxybenzenesulfonyl)-pyridin-3-ylmethylamino]-7-trifluoromethyl-quinoline-3-carboxylic acid hydroxyamide], the IC50 worked out at 99 nM.

Values taken from patent US6534491B2, “Preparation and use of ortho-sulfonamido bicyclic heteroaryl hydroxamic acids as matrix metalloproteinase and tace inhibitors” (priority 1996, dated 2003).
